Test [1] deals with Muscarinic acetylcholine receptor M1 (Homo sapiens) (UniProt P11229). As to the kind of experiment: Cholinergic receptor muscarinic 1 (CHRM1) small molecule antagonists, cell-based qHTS assay (AID 1963588). Further: nearly all actives have a fitted effect of over 40% in size. The settings on record: CHRM1-CHO antagonist mode, calcium flux fluorescence. In outline:
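Compounds were tested at 15 concentrations in three independent runs. Dye-loaded CHRM1-CHO cells were exposed 5 min at room temperature before stimulation by acetylcholine added at 50nM. Intracellular calcium was read kinetically on FDSS for 3 min.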
(In qHTS, concentration-response curves come from the screen itself.)

Protein sequences, listed by entry. Tags and fused reporters are not part of them. Lines headed by an entry give the natural chain unless they say otherwise; changes in a name come on top.
UniProt P11229: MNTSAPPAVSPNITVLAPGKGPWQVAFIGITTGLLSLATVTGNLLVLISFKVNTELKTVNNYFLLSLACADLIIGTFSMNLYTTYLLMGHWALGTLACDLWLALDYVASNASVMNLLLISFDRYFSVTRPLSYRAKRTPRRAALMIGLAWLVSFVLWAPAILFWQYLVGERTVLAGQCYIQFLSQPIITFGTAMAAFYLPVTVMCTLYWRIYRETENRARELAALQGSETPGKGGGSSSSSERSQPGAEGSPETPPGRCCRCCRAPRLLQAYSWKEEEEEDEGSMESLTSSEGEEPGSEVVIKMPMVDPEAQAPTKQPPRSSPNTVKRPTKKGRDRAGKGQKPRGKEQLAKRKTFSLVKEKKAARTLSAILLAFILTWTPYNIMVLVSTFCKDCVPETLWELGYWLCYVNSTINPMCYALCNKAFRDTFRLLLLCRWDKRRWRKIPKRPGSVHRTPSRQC
UniProt P28223, whole entry, looked up: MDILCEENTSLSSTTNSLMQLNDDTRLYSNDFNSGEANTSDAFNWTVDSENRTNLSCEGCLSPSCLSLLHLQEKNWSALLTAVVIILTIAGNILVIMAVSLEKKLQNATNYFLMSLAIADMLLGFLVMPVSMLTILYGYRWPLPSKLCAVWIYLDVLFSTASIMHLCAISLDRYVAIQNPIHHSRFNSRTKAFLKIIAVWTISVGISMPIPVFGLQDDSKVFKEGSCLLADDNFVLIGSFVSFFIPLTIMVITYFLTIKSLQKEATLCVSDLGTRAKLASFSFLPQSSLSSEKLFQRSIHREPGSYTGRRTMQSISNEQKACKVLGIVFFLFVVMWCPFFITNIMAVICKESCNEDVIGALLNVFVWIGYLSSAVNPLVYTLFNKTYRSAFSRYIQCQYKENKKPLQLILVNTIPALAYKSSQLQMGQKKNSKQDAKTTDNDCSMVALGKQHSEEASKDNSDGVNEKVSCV
UniProt P14416, whole entry, looked up: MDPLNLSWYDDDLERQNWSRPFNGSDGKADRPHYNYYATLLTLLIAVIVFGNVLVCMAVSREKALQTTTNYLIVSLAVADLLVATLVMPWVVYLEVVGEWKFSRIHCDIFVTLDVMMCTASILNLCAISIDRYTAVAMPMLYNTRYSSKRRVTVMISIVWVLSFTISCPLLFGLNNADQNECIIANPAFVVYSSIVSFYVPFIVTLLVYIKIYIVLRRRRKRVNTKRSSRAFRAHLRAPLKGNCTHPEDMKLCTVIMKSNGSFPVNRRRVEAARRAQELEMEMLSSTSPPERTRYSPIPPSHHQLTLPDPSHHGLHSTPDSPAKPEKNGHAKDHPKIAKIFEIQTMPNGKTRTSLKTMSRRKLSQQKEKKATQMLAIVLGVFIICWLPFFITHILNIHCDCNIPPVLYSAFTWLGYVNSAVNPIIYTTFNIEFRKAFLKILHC

For test [2], the target named is 5-hydroxytryptamine receptor 2A (Homo sapiens) (UniProt P28223). As to the kind of experiment: 5-hydroxytryptamine receptor 2A (HTR2A) small molecule antagonists, cell-based qHTS assay (AID 1963586). Further: nearly all actives have a fitted effect of over 45% in size. The settings on record: HTR2A-CHO cells, DOI-induced calcium flux, fluorescence. In outline:
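CHO cells stably expressing human HTR2A were plated for 18 h at 37 C, then loaded with calcium dye for 1 h. Compounds were preincubated 5 min at room temperature before DOI (4 nM solution) was added. Kinetic fluorescence was read for 3 min.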

In test [3] the target is D(2) dopamine receptor (Homo sapiens) (UniProt P14416). As to the kind of experiment: Dopamine D2 receptor (DRD2) small molecule antagonists, cell-based qHTS assay (AID 1963595; active means well fitted inhibition curve with a large enough effect in the signal ratio in the repeat runs, with a control signal flat; the % refers to the signal ratio). The settings on record: HEK293-DRD2 cAMP HTRF antagonist mode. Summed up: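 HTRF cAMP read-out at 665 and 620 nm emission (340 nm excitation). Antagonist mode: compounds were tested against 12 nM quinpirole in DRD2-HEK293 cells, with 200 nM NKH477 raising cAMP and 0.1 mM Ro20-1724 blocking its breakdown.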

The entries are a selection whose mix differs from that of the whole data set. Inconclusive results are not listed. The source made the active and inactive calls. Unless noted, the call rests on the fitted dose curve.
Potency means the concentration at half of the fitted maximal effect.

With `CN(CCCN1c2ccccc2CCc2ccccc21)CC(=O)c1ccc(Cl)cc1`, in test [1], the Potency was active: 3.26 µM.

As to `CN1CCC(=C2c3ccccc3CCc3cccnc32)CC1`, the Potency in test [2] was active: 8.18 µM.

On to `CCN1CCC[C@H]1CNC(=O)c1c(O)c(Cl)cc(Cl)c1OC`, for which the Potency in test [3] is active: 0.335 µM.

The values above are taken from PubChem BioAssay (Tox21).
